The values that follow are results of earlier work, collected in patent publication US8575111B2, “Pharmaceutical compositions and methods for treating erectile dysfunction” (Universidade Federal de Minas Garais-UFMG, priority 2007, dated 2013).

Entries after “also recorded” stand apart in the source; their conditions may differ.

The target of one data set is T1, AT2 (Homo sapiens, UniProt P50052).
T1 sequence (P50052 1-363): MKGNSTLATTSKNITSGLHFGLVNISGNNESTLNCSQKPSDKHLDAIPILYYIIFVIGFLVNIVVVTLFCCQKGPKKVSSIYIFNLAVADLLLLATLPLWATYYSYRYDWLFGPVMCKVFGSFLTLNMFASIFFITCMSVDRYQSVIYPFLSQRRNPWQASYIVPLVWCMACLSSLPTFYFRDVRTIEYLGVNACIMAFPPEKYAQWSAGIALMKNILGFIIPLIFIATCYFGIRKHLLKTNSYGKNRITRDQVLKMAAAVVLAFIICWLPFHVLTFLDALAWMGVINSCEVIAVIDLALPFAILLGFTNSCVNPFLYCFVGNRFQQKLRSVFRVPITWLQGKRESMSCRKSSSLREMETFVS
Particulars: receptor AT2; cited from earlier work.

Another data set concerns the target AT1 (Homo sapiens, UniProt P30556). As to conditions: receptor AT1; cited from earlier work.

For the substance Ang II, the Actions entry at AT2 was “Inhibition of cell proliferation; also recorded: Apoptosis; also recorded: Vasodilation”; at AT1 it was “Remodeling and cell proliferation; also recorded: Thrombosis and inflammation; also recorded: Vasoconstriction and pressor; also recorded: Increase of inotropism and; also recorded: Arrhythmogenic effect”.
